Tested on: human H1, H2, H3, and H4 receptors
Details: over the range of clinical steady state famotidine drug levels

NC(N)=Nc1nc(CSCCC(N)=NS(N)(=O)=O)cs1 [Famotidine]
specificity among histamine receptors: specific for H2

Source: article PMC8021898 (Frontiers in Pharmacology, 2021)
